Measurements: patent publication US5069909A, “Transdermal administration of buprenorphine” (Cygnus Therapeutic Systems, priority 1990, dated 1991)

Conditions: flow-through cells

Compound: CCCCCCCCCC(=O)O
- skin flux from saturated solutions, comparison (in words): better penetration enhancer than lauric acid
